Measured values taken from patent publication US10584114B2, “Inhibitors of RET” (BLUEPRINT MEDICINES CORPORATION, priority 2015, dated 2020).

Amino acid sequences for entries named in this document (tags omitted). Residues count along the entry.
UniProt P07949, 658-1114: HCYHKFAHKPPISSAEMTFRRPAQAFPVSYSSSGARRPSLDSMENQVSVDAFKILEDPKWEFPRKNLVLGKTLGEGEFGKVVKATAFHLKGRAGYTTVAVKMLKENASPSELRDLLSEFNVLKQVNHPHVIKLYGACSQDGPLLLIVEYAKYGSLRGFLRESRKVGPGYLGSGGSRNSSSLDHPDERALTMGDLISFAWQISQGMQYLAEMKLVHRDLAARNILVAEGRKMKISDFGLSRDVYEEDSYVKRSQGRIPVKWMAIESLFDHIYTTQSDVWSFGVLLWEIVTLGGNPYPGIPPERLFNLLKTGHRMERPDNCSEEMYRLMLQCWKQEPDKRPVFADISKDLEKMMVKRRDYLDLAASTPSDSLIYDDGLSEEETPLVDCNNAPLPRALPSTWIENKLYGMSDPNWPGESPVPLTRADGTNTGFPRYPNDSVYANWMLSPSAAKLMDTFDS
UniProt P07949, 658-1114 V804L: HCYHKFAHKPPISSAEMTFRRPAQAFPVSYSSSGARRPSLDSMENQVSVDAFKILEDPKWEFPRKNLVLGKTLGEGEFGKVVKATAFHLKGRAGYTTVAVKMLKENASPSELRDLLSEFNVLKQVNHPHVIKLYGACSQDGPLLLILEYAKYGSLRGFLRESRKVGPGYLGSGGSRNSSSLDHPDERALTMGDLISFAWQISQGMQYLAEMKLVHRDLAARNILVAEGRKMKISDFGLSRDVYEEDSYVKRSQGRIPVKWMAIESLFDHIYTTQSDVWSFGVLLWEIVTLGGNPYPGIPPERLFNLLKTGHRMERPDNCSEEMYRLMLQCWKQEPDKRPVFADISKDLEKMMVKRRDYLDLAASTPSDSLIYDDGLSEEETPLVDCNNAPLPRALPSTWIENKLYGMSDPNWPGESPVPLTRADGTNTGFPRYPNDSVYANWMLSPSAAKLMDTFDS

How the values were obtained:
[1] = target: wild type RET (Homo sapiens (Human), UniProt P07949); assay: RET Wild Type Assay at KM (Caliper electrophoretic mobility shift); details: compounds approved or in development for RET-related conditions; read-out: RET wt Biochemical IC50
[2] = target: RET V804L (Homo sapiens (Human), UniProt P07949, V804L); assay: RET V804L Gatekeeper Mutant Assay at KM (Caliper electrophoretic mobility shift); details: compounds approved or in development for RET-related conditions; read-out: RET V804L Biochemical IC50

## CNC(=O)c1cc(Oc2ccc(NC(=O)Nc3ccc(Cl)c(C(F)(F)F)c3)c(F)c2)ccn1 [Regorafenib, reference compound]
[1]
  IC50: 12 nM
[2]
  IC50: 53 nM
